Bioassay records deposited in PubChem by ICCB-Longwood Screening Facility, Harvard Medical School.
GIV-Gai inh = blocks GIV peptide binding to rat Galpha-i3. P08753. Galpha-i3/FITC-GIV peptide fluorescence polarization, 90 min; stronger effect = lower value; scaled: aluminum fluoride 0%, vehicle 100%. percent of control (FP), % (test concentration not listed). 0.42% of 210,000 active. AID 1224905;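 active = replicate mean at 85% of control or lower, very high polarization wells dropped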;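 note: wells of about 15 µL received 100 nL stock; the first replicate is given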
HCMV UL50-53 inh = inhibitors of HCMV UL50-UL53 interaction, biochemical, HTRF | HCMV UL50-UL53 nuclear egress complex (human cytomegalovirus) | normalized percent inhibition | inhibition, % (no concentration beside the values) | actives 0.15% (n = 190,000) | AID 1918969, 2023; in the data active = inhibition above about 27%, passing the limit was not always enough
Starred values were filed as active, the others as inactive; nt = not tested or not shown; ! = a repeat was not active. Rows were chosen to be rich in hits. Some 0.43% of all compounds tested hit in one or more screens of this group.

no.	structure	GIV-Gai inh	HCMV UL50-53 inh
1	CCC(C)OC(=O)C1=C(C)NC2(O)c3ccccc3C(=O)C12O (configuration not stated)	107	nt
2	CC1=C(C(=O)OC(C)C)C2(O)C(=O)c3ccccc3C2(O)N1 (configuration not stated)	99	61*
3	N#Cc1ccccc1NC(=O)c1ccc(N2C(=O)CCC2=O)cc1	96	-19
4	O=C(CCn1cnc2cc(S(=O)(=O)N3CCCC3)ccc21)N1CCN(c2ccccn2)CC1	110	-41
5	O=C(c1ccc2nc(/C=C(\O)c3ccc(Cl)cc3)c(=O)[nH]c2c1)N1CCOCC1	68*	-95
6	O=C(c1ccc2nc(/C=C(\O)c3ccc(Cl)cc3)c(=O)[nH]c2c1)N1CCN(c2ccco2)CC1	330	-81
7	CN(C(=O)CSc1nnc2c3ccccc3nc(-c3ccccc3)n12)c1ccccc1	101	nt
8	OC(c1ccc(Cl)cc1)C(O)c1nc2ccccc2[nH]1 (configuration not stated)	nt	-20
9	OCC(O)C(O)C(O)C(O)c1nc2ccccc2[nH]1 (configuration not stated)	nt	37*
10	CCOC(=O)/C(C#N)=C\c1ccc(N2CCOCC2)cc1	-45*	-50
11	CCOC(=O)/C(C#N)=C/c1ccccc1	103	-76
12	COc1ccc2c(C(=O)N(C)CCc3ccccn3)cc(-c3cnn(C)c3)nc2c1	nt	-20
13	CN1/C(=C\C=C(C#N)C#N)C(C)(C)c2ccccc21	nt	14
14	CC[n+]1c(/C=C/C=C2/N(C)c3ccccc3C2(C)C)sc2ccccc21	-20*	-10
15	O=c1[nH]c2ccc(NS(=O)(=O)c3cnc[nH]3)cc2s1	99	-4

Some of these compounds in order of SMILES length, lowest first.
no.	structure	GIV-Gai inh	HCMV UL50-53 inh
8	OC(c1ccc(Cl)cc1)C(O)c1nc2ccccc2[nH]1 (configuration not stated)	nt	-20
15	O=c1[nH]c2ccc(NS(=O)(=O)c3cnc[nH]3)cc2s1	99	-4
1	CCC(C)OC(=O)C1=C(C)NC2(O)c3ccccc3C(=O)C12O (configuration not stated)	107	nt
14	CC[n+]1c(/C=C/C=C2/N(C)c3ccccc3C2(C)C)sc2ccccc21	-20*	-10
5	O=C(c1ccc2nc(/C=C(\O)c3ccc(Cl)cc3)c(=O)[nH]c2c1)N1CCOCC1	68*	-95

Returning to the listing, starting two compounds before the break.
no.	structure	GIV-Gai inh	HCMV UL50-53 inh
14	CC[n+]1c(/C=C/C=C2/N(C)c3ccccc3C2(C)C)sc2ccccc21	-20*	-10
15	O=c1[nH]c2ccc(NS(=O)(=O)c3cnc[nH]3)cc2s1	99	-4
16	O=c1nc2sc3[nH]c(=O)sc3cc-2s1	-47*	-78
17	O=c1c(-c2ccc(Oc3ccccc3)cc2)[n+]([O-])c2ccccc2n1O	116	-64
18	N#Cc1c(=O)n(O)c2ccccc2[n+]1[O-]	-33*	-132
19	N#CC(C#N)=C(/C=C/c1ccccc1)C1CC1	nt	-3
20	CN(C)c1ccc(/C=C/C(=C(C#N)C#N)C2CC2)cc1	-45*	-39
21	O=C(O)c1cc(C2CC2)on1	100	-8
22	Cn1c2ccc(F)cc2c2n[nH]c(=S)nc21	104	-66
23	CC1(C)CC(=O)C2=C(C1)Nc1ncnn1C2c1ccncc1 (configuration not stated)	nt	-20
24	CC(C)(C)c1cc(C(N2CCCCC2)P(=O)(c2ccccc2)c2ccccc2)cc(C(C)(C)C)c1O (configuration not stated)	108	nt
25	CCN(CC)c1ccc2cc(-c3nc(-c4ccccc4)cs3)c(=O)oc2c1	-32*!	nt
26	CCN(CC)c1ccc2cc(-c3nc(-c4ccccc4F)no3)c(=O)oc2c1	117	nt
27	CCN(CC)c1ccc2cc(-c3nc(-c4cc(OC)c(OC)c(OC)c4)no3)c(=O)oc2c1	-21*	nt
28	CCN(CC)c1ccc2cc(-c3csnn3)c(=O)oc2c1	162	-32
29	CCN(CC)c1ccc2cc(-c3nnc(-c4cccc(Cl)c4)o3)c(=O)oc2c1	7.6*	-45
30	COc1cc(-c2noc(-c3cc4cccc(C)c4oc3=O)n2)cc(OC)c1OC	101	nt
31	CCN(CC)c1ccc2cc(-c3csc(C)n3)c(=O)oc2c1	nt	-42
32	CCN(CC)c1ccc2cc(-c3nc(-c4cccs4)no3)c(=O)oc2c1	-21*	nt
33	CCOC(=O)Cc1csc(C)n1	nt	-11
34	NC(=O)C1CCN(c2c3c(nc4nncn24)CCC3)CC1	102	-14
35	CC1CCN(S(=O)(=O)c2ccc(-c3nnc(C4CCC4)o3)o2)CC1	105	nt
36	COc1cccc(C(=O)NC(=NCc2ccncc2)Nc2ccc3c(c2)OCCO3)c1	100	-32
37	Cc1cc(C(=O)NCCCN2CCOCC2)no1	100	24
38	N#CC1=C(N)SC(N)=C(C#N)C1c1cc2c(cc1Cl)OCO2	-0.4*	-26
39	CCc1ccc(C2C(C#N)=C(N)Oc3cc4c(cc32)OCO4)cc1 (configuration not stated)	104	nt
40	COc1ccccc1N1CCN(c2ccc(=O)n(CC(=O)N3CCN(C)CC3)n2)CC1	109	-30
41	COC(=O)c1cnc(Cl)cc1Cl	nt	-6
42	COc1ccc(/C=C2\C=C(c3ccccc3)N(c3ccc(C)c(C)c3)C2=O)cc1Br	64*	nt
43	COc1ccc(/C=C2\C=C(c3ccccc3)N(c3ccccc3)C2=O)cc1Br	115	nt
44	O=C(Cc1c(F)cccc1Cl)Nc1cc(C(=O)NCc2cccs2)ccc1N1CC2CC(C1)c1cccc(=O)n1C2 (configuration not stated)	109	nt
45	CCOC(=O)c1[nH]c(CSc2cccc[n+]2[O-])c(C(=O)OCC)c1C	nt	62*
46	CCOC(=O)c1[nH]c(CSc2nnc3ccccn23)c(C(=O)OCC)c1C	nt	-22
47	Cc1cc2c(cc1C)N(C(=O)c1ccccc1Cl)C(C)(C)c1ssc(=S)c1-2	118	nt
48	CCCS(=O)(=O)N1N=C(c2ccc(Cl)cc2)CC1c1ccco1 (configuration not stated)	182	-6
49	CCCS(=O)(=O)N1N=C(c2ccc(C)cc2)CC1c1ccco1 (configuration not stated)	7.4*	-10
50	COC(=O)c1c(NC(=O)N2CCCC2c2ccc(Cl)cc2)sc2c1CCCC2 (configuration not stated)	101	-34
51	CC(c1nc2ccccc2n1C)N1CCCCC1 (configuration not stated)	99	-22
52	O=C(NC1CCCC1)c1c(O)nc2ccccn2c1=O	97	-18
53	Cc1cc(-c2nn3c(-c4ccc(F)cc4)nnc3s2)no1	102	0
54	COc1ccc(CNC(=O)c2cc3c(s2)-c2c(C)nn(-c4ccccc4)c2CC3)cc1	105	-20
55	CCOc1cc(/C=C2\SC(=S)N(CC)C2=O)cc(Cl)c1O	-15*	-19
56	CCOc1cccc(/C=C2\SC(=S)N(CC)C2=O)c1O	nt	-21
57	COc1cc(-c2nc(C=Nc3ccc(C)cc3Br)c(O)o2)cc(OC)c1OC	110	nt
58	Cc1ccc(N=Cc2nc(-c3cccc4ccccc34)oc2O)c(Br)c1	25*	nt
59	Cc1ccc(C(=O)NC2(O)C(=O)c3ccccc3C2=O)cn1	94	54*
60	Cc1ccc(C(=O)N/N=C/c2c[nH]c3ccccc23)cn1	104	-56
61	N#Cc1oc2ccccc2c1N	nt	-36
62	C=CC1=C(C(=O)O)N2C(=O)C(NC(=O)C(=NOCC(=O)O)c3csc(N)n3)C2SC1 (configuration not stated)	nt	95*
63	C=CC1=C(C(=O)O)N2C(=O)[C@H](NC(=O)C(=NO)c3csc(N)n3)[C@H]2SC1	nt	-23
64	Cn1c(=O)c(O)c(O)c2ccccc21	nt	-14
65	CCCCCCCCN1/C(=C/C=C/c2n(CCCCCCCC)c3cc(Cl)c(Cl)cc3[n+]2CCCCC)N(CCCCC)c2cc(Cl)c(Cl)cc21	144	nt
66	C=CCN1/C(=C\C=C\c2n(CC=C)c3cc(Cl)c(Cl)cc3[n+]2CCCCCCCC)N(CCCCCCCC)c2cc(Cl)c(Cl)cc21	-62*	nt
67	Nc1ccccc1NC1=CC(=O)CC(c2c(F)cccc2Cl)C1 (configuration not stated)	98	-12
68	O=C(COc1ccc(F)cc1)N1CCN(c2ncnc3c2nnn3-c2ccc(Cl)cc2)CC1	100	nt
69	CCN(CC)c1ccc(C=C2C(=O)OC(c3ccccc3)OC2=O)cc1 (configuration not stated)	nt	9
70	CN(C)c1ccc(C=C2C(=O)OC(C)(C(C)(C)C)OC2=O)cc1 (configuration not stated)	17*	1
